Reference: PubChem BioAssay (NCI)
Only a part is listed here, and it is no random draw. More than one record can exist for a structure, and the calls need not agree. Calls of active or inactive are those of the source. Cut-off read from the data, not from the text of the source: active = growth inhibition above about 70%; inactive = the rest.

Assay: NCI Yeast Anticancer Drug Screen. Data for the rad18 strain (AID 177)
Conditions: S. cerevisiae rad18 mutant growth inhibition, stronger effect = higher value
Procedure: Growth inhibition of yeast strains with defined genetic alterations is measured as a screen for potential anti-cancer activity. Selected strains with alterations in DNA damage repair or cell cycle control were exposed to compounds and growth inhibition was measured relative to vehicle treated controls. The strain used in this assay is rad18

| SMILES | growth inhibition (at 1.2 µM) | growth inhibition (at 3.7 µM) | growth inhibition (at 11.0 µM) | growth inhibition (at 33.0 µM) | growth inhibition (at 100.0 µM) |
| --- | --- | --- | --- | --- | --- |
| CN(C)P(=O)(N(C)C)n1c(Nc2ccccc2)nnc1-c1ccccc1 | inactive: 2% | inactive: -3% | inactive: 51% | active: 96% | active: 93% |
| NC(Cc1cnc[nH]1)C(=O)O (stereo not given) | inactive: -11% | inactive: 50% | active: 95% | active: 98% | active: 99% |
| O=C1OC(C(Cl)(Cl)Cl)Sc2ccccc21 (stereo not given) | inactive: 1% | inactive: 8% | inactive: 25% | inactive: 66% | active: 85% |
| CC(C)c1nc(Nc2ccccc2)n(P(=O)(N(C)C)N(C)C)n1 | inactive: -32% | inactive: -25% | inactive: -25% | active: 70% | active: 93% |
| COc1cccc(C[N+](C)(CCCl)CCCl)c1[N+](=O)[O-] | inactive: 8% | inactive: 30% | active: 73% | active: 95% | active: 96% |
| O=[N+]([O-])c1cc([N+](=O)[O-])c2nsnc2c1 | inactive: 26% | inactive: 69% | active: 100% | active: 99% | active: 99% |
| FC1(F)SC2C(C1(F)F)C1(Cl)C(Cl)=C(Cl)C2(Cl)C1(Cl)Cl (stereo not given) | inactive: 33% | active: 95% | active: 99% | active: 98% | active: 98% |
| N#Cc1cc([N+](=O)[O-])cc([N+](=O)[O-])c1N | inactive: 7% | inactive: 14% | inactive: 17% | inactive: 31% | inactive: 44% |
